Source: patent US9255100B2 (BAYER INTELLECTUAL PROPERTY GMBH, priority 2010, dated 2016)

The chains behind the UniProt entries cited, without tags or fusion partners.
UniProt P33981, whole entry: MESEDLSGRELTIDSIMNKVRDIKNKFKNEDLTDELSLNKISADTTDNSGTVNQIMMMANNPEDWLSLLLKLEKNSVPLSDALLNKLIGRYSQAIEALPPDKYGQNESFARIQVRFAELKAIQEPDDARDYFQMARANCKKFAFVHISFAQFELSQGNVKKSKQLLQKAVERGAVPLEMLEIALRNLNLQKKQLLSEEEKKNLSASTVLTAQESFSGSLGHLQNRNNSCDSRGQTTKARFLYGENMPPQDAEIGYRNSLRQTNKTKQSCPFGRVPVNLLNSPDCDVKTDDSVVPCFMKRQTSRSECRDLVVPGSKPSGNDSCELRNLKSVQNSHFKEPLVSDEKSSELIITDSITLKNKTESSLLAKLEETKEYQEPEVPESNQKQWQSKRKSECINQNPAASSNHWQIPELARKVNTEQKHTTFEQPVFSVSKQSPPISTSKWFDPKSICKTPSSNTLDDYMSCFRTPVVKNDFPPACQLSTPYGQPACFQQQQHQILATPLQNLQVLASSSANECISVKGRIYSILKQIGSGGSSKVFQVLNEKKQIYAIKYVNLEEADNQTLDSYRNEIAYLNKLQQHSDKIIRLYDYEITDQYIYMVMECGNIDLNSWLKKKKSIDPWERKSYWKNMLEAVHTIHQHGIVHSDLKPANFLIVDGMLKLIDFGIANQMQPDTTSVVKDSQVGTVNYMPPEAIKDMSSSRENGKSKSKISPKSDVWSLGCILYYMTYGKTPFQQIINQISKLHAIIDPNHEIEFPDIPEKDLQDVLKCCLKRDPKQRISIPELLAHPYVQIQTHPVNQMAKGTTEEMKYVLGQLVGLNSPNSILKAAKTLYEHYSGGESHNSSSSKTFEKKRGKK

Molecular target: N-terminally GST-tagged human full length recombinant Mps-1 kinase (Homo sapiens, UniProt P33981)
Assay: Mps-1 kinase assay (TR-FRET)
Type: biochemical
Conditions: read-out: Mps1 IC50, 10 μM ATP, 1 μM peptide substrate, 60 min at 22° C.

Cc1cc(-c2cnc3c(NCC4CCSCC4)cc(Oc4cccnc4)nn23)ccc1C(=O)NC1CC1
IC50: 0.1 nM
